Test results from ChEMBL document CHEMBL5113513, “Selective Inhibitors of Medium-Size S1' Pocket Matrix Metalloproteinases: A Stepping Stone of Future Drug Discovery” (J Med Chem, 2022).

Sequences of proteins named here, by UniProt entry; tags and fusion partners are left off. A change or cut given only in a name is not applied to a line headed by its entry.
UniProt P14780: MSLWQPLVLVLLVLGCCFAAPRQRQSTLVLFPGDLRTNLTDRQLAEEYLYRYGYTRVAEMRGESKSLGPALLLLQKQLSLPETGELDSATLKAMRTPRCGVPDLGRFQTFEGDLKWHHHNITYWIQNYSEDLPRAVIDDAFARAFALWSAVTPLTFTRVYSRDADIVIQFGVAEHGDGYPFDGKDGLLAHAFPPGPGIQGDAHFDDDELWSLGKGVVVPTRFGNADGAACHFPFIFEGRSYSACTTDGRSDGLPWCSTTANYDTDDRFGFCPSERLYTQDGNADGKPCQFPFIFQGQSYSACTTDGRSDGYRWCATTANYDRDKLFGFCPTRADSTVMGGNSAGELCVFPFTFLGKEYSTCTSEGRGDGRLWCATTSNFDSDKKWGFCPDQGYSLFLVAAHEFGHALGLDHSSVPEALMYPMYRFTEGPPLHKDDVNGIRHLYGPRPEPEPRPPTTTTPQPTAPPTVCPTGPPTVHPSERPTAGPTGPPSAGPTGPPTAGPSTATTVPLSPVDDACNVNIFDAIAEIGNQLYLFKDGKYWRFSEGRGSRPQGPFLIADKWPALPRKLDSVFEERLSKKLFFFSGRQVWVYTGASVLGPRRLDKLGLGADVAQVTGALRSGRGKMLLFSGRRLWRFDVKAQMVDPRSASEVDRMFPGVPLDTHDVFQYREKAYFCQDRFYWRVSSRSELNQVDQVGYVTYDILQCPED

Tests used:
Interstitial collagenase = target: T1, Interstitial collagenase (Homo sapiens, UniProt P03956); assay: Inhibition of MMP-1 (unknown origin)
T1 sequence (P03956 whole entry): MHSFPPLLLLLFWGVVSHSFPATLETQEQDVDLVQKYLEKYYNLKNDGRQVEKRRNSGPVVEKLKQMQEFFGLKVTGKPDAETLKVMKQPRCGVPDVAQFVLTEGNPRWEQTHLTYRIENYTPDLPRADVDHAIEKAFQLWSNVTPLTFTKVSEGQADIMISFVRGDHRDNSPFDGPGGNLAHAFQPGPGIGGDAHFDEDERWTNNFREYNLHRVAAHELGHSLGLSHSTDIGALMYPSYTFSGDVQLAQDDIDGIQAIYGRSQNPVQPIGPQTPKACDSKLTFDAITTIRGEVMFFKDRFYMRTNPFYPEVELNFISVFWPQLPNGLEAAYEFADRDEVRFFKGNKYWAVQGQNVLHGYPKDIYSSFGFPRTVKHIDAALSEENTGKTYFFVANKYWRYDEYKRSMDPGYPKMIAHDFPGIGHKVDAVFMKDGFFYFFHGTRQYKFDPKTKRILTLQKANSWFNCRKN

Collagenase 3 = Collagenase 3 (Homo sapiens, UniProt P45452)
[1] = target: Matrix metalloproteinase-9 (Homo sapiens, UniProt P14780); assay: Inhibition of MMP-9 (unknown origin)

SMILES	Ki (Interstitial collagenase)	Ki (Collagenase 3)	Ki [1]
O=C(NO)C1(S(=O)(=O)c2ccc(Oc3ccc(Cl)cc3)cc2)CCOCC1	590 nM	0.52 nM	
CC(=O)Nc1ccc(Oc2ccc(S(=O)(=O)CC3CS3)cc2)cc1 (stereo not drawn)			34000 nM
